What was measured:
[1] = tested on: Endothelial and smooth muscle cells grown together; assay: IL-6 expression in co-cultures of endothelial and smooth muscle cells; format: cell-based; settings: endothelial and smooth muscle cells mixed (1:1, 1:2, 1:4) or layered; TNFα 1 ng/ml
Method: Endothelial and smooth muscle cells were grown together in culture media (Basal medium from Clonetics) containing 0.2% albumin. The cells had either nothing added, 1ng/ml TNFα, 1 nM insulin or TNFα and insulin. The media were collected and the amount of IL-6 and MCP-1 was measured. […] This induction was seen both under conditions where endothelial and smooth muscle cells were mixed at different ratios (1:1, 1:2 and 1:4) or when smooth muscle cells were layered over endothelial cells to simulate blood vessel conditions in culture. The induction was more pronounced in the blood vessel-like culture model.

[2] = tested on: Human aortic endothelial cells (HAEC); assay: MCP-1 secretion by human aortic endothelial cells exposed to disease stimuli (ELISA); format: cell-based; settings: 16 hrs, stimulus alone: 1 ng/ml TNF-α, 1 nM insulin or 100 μg/ml glycated HSA
Method: Human aortic endothelial cells (HAEC) were grown with culture medium (Basal medium from Clonetics) containing 0.2% albumin with or without 1 ng/ml TNF-α or 100 μg/ml glycated-human serum albumin (HAS) or 1 nM insulin for 16 hrs. Media were collected and the amounts of […] (DuoSet ELISA development kit—R&D Systems) and MCP-1 (Quantiline Human MCP-1 kit—R&D Systems) were measured. VCAM-1 expression was measured by incubating […] with a polyclonal goat anti-human VCAM-1 antibody (R&D Systems, 1:1000 dilution) followed by development with a rabbit anti-goat IgG-conjugated with horseradish peroxidase (HRP).

Q: With “G-HSA: glycated human serum albumin, disease stimulus, 100 μg/ml” as the substance, how does the “stimulus-induced IL-6 expression in co-culture versus cells cultured separately” value [1] read?
A: The value was “neither interleukin-1 nor glycated albumin/advanced glycation end products (AGE) showed enhanced induction”.

Q: What about the “increase in MCP-1 secretion” value [2] of the same substance?
A: The value was “about 60%”.
